# Data reported in PubChem BioAssay AID1259309 (ICCB-Longwood Screening Facility, Harvard Medical School, 2017).
# The list shows a part of the results, in another mix than the full data. Some results for these compounds are left out of this collection, so the calls shown say nothing about other tests. Calls of active or inactive are those of the source. Cut-off read from the data, not from the text of the source: active = growth inhibition above about 68%; inactive = the rest.
# Experiment: growth inhibition of ugtP-null S. aureus, primary screen, RN4220 ugtP deletion, OD600 (AID 1259309);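 note: plate controls were untreated wells for no effect and antibiotic for full effect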
# Details: 16 h, hits give high values
row,Compound,growth inhibition
1,O=C(NCC1(N2CCCCC2)CCCCC1)c1cccc(Cl)c1,inactive: -0.327%
2,COc1cccc(C(=O)NCC2(N3CCCCC3)CCCCC2)c1,inactive: -0.688%
3,COc1ccc(Cl)cc1C(=O)NCC1(N(C)C)CCCCC1,inactive: 18.1%
4,COc1cc(C(=O)NCC2(N(C)C)CCCCC2)c([N+](=O)[O-])cc1OC,inactive: 4.83%
5,CN(C)C1(CNC(=O)c2ccc(Br)cc2)CCCCC1,inactive: 0.511%
6,CN(C)c1cccc(C(=O)NCC2(N(C)C)CCCCC2)c1,inactive: 3.88%
7,CC(C)Oc1ccc(C(=O)NCC2(N(C)C)CCCCC2)cc1,inactive: 7.47%
8,O=C(OCCN1CCCC1)C(O)(c1ccccc1)c1ccccc1,inactive: -1.12%
9,COc1ccc(Br)c(C(=O)NCC2(N3CCCCC3)CCCCC2)c1,inactive: -2.73%
10,O=C(OC1CN2CCC1CC2)C(CO)(c1ccccc1)c1ccccc1 (stereo not drawn),inactive: 3.94%
11,Cc1ccc(C(=O)NCC2(N3CCCCC3)CCCCC2)cc1,inactive: 3.54%
12,COc1cc(SC)ccc1C(=O)NCC1(N(C)C)CCCCC1,inactive: 0.406%
13,CN1[C@@H]2CC[C@H]1CC(OC(=O)C(O)(c1ccccc1)c1ccccc1)C2 (stereo partly drawn),inactive: 0.161%
14,O=C(NCC1(N2CCCCC2)CCCCC1)c1cc([N+](=O)[O-])ccc1Cl,inactive: -1.25%
15,CCN1CCCC(OC(=O)C2(O)c3ccccc3C=Cc3ccccc32)C1 (stereo not drawn),inactive: 2.99%
16,Cc1cc(C(=O)NCC2(N3CCCCC3)CCCCC2)ccc1[N+](=O)[O-],inactive: 12.4%
17,O=C(NCC1(N2CCCCC2)CCCCC1)c1cccc(Br)c1,inactive: 11.4%
18,COc1ccc(C(=O)NCC2(N(C)C)CCCCC2)cc1,inactive: 9.15%
19,O=C(NCC1(N2CCCCC2)CCCCC1)c1cc(F)c(F)cc1Cl,inactive: 3.49%
20,CN(C)CCOC(=O)C(O)(c1ccccc1)C1CCCCC1 (stereo not drawn),inactive: -1.06%
21,Cc1ccccc1C(=O)NCC1(N2CCCCC2)CCCCC1,inactive: 4.5%
22,CN(C)c1ccc(C(=O)NCC2(N(C)C)CCCCC2)cc1,inactive: 0.374%
23,CN(C)C1CCCC1OC(=O)C(O)(c1ccccc1)c1ccccc1 (stereo not drawn),inactive: 5%
